Reference: patent US9975946B2, “Antibodies obtainable using supramolecular constructs” (AC Immune SA, priority 2004, dated 2018)

Test system: C57BL/6 mice
Assay: ELISA of sera from mice immunized with liposomal antigens (immunogenicity)

## PEG-Aβ1-16: Aβ1-16 (SEQ ID NO: 5) with N- and C-terminal PEG-lipid, reconstituted in DMPC/DMPEA/DMPG/cholesterol liposomes with monophosphoryl lipid A (DAEFRHDSGYEVHHQK; Amyloid-beta protein 42 N- and C-terminal PEG-lipid, liposomal with MPLA; UniProt P05067 672-687, looked up, fragment)
Antigen + ALUM
  effect of additional ALUM on immunogenicity (ELISA): did not enhance the immunogenicity
liposomes/lipid A antigen, immunization in 2 week intervals
  immunogenicity (ELISA): significantly more immunogenic than palmitoylated Aβ1-16
